US20250136722A1, “CYTOTOXICITY TARGETING CHIMERAS” (GLAXOSMITHKLINE INTELLECTUAL PROPERTY DEVELOPMENT LIMITED, priority 2021, published 2025)

Protein sequences, listed by entry. Tags and fused reporters are not part of them. Lines headed by an entry give the natural chain unless they say otherwise; changes in a name come on top.
UniProt P41597, whole entry: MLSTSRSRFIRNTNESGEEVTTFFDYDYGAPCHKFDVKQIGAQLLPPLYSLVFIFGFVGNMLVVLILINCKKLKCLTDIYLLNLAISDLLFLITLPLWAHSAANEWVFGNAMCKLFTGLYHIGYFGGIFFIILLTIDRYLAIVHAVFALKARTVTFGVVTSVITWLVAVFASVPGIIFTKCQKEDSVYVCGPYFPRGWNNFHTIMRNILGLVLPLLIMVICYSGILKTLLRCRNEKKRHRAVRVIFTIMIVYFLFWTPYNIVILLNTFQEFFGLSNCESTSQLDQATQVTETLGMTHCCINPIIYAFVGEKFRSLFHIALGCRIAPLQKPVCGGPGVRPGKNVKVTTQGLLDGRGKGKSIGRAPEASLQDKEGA

What was measured:
[1] = target: Anti-cotinine antibody (SEQ ID NO: 11 / SEQ ID NO: 12, rabbit variable region with human IgG1 Fc domain) (synthetic construct, UniProt Z9HSV0PDV2+Z9L748VNP9); assay: Binding of anti-cotinine antibody to ARM compounds by SPR, Biacore T200, 37° C. (Example 202); details: pH 7.4, rabbit variable region/human IgG1 Fc antibody captured on protein A
Procedure: Anti-cotinine antibodies having a heavy chain sequence of SEQ ID NO: 11 and a light chain sequence of SEQ ID NO: 12 (rabbit variable region with human IgG1 Fc domain containing a DE mutation (S239D/1332E)) were captured on one or more flow cells of a protein A sensor chip (Cytiva) using a Biacore T200 while reserving flow cell 1 as a reference. Following capture, a 3000 second wait step was included to reduce drift during compound analysis. ARM compounds of Formula (I) were then injected at 100 μL/min with 200 and 2000 second association and dissociation times. The entire experiment was run at 37° C. with running buffer containing 10 mM HEPES pH 7.4, 150 mM NaCl, 0.005% P20 and 1% DMSO. […] The experiment was run using Biacore T200 control software and evaluated using Biacore T200 Evaluation software. Curves were fit with a 1:1 kinetic binding model to obtain kon(1/Ms), koff(1/s), Kd (M) determined as koff/kon, and residence time determined as 1/koff. […]
Anti-cotinine antibody was tested for binding to ARMs compounds of Formula (I) of the invention in the above assay in or more experimental runs and the results are shown in Table 5 below. […] The pKd value is the negative log of the Kd value, wherein the Kd value is the dissociation constant measured in molar (M) as noted above. […]

[2] = Blood drug concentration analysis (PK) in the in vivo depletion assay (Example 201); details: hCCR2 knock-in mice, IV 0.1 mpk compound + 10 mpk anti-cotinine antibody
Procedure: Human CCR2 (hCCR2) knock-in mice (C57 background) were dosed intravenously with a PBS solution containing a compound of Formula (I) to measure depletion of CCR2 expressing cells in peripheral blood. Peripheral blood from IV dosed mice was also analyzed to determine PK properties of the ARM compounds of Formula (I).
Administration to Animal: Solution formulation of antibody and compound of Formula (I) was injected (bolus injection) to the restrained mouse in the right/left lateral tail vein. Animals were dosed with 0.1 milligram per kilogram (mpk) of the compound of Formula (I) and 10 mpk of the anti-cotinine antibody. […]
Terminal bleeding at end of experiment (48 hr): Approximately 250 μL of blood in K2EDTA tube and approximately 250 μL of blood in SST (serum separation tube) was collected from each mouse through retro-orbital bleeding under deep isoflurane anesthesia. […] The blood distribution at termination was determined as follows: • For PK: 50 μL of K2EDTA blood was transferred to another tube for PK • Flow cytometry: Remaining blood (˜200 μL) was used for flow cytometry analysis. • For serum collection: serum separator tubes (BD) were centrifuged at 4° C., 5000 rpm for 15 minutes. […]
Drug concentration in blood samples was determined by an LC-MS/MS-based bioanalytical method developed at Syngene. […]

[3] = target: CHOK1 cells engineered to overexpress human CCR2 (Homo sapiens, UniProt P41597); assay: Antibody dependent cellular cytotoxicity (ADCC) reporter assay (Example 199); details: with anti-cotinine antibody SEQ ID NO: 11/12; CHOK1-human CCR2 target cells, Jurkat FcγRIIIa NFAT-luciferase reporter cells; 12-18 hours
Procedure: An antibody dependent cellular cytoxicity reporter assay was conducted using the following four assay components: (i) ARM compound of Formula (I) targeting CCR2 (concentrations ranging from 1 pM to 10 μM) (ii) anti-cotinine antibody having a heavy chain sequence of SEQ ID NO: 11 and a light chain sequence of SEQ ID NO: 12 (rabbit variable region with human IgG1 Fc domain containing a DE mutation (S239D/1332E)) (concentrations ranging from 0.01 μg/mL to 200 μg/mL); (iii) target cells: CHOK1 cells engineered to overexpress either human CCR2 (typically 1000-20,000 cells per well) and (iv) reporter cells: Jurkat cells engineered to express FcγRIIIa with the reporter gene luciferase under the control of the NFAT promoter (typically 3000-75,000 cells per well). Reagents were combined in a final volume of 20 μL in a 384-well tissue culture treated plate. […] Luminescence signal was measured on a microplate reader and signal:background was calculated by dividing the signal of a test well by the signal obtained when no heterobivalent compound of Formula (I) was added. […]
ARMs compounds of Formula (I) of the invention were tested for ADCC activity in the above assay in or more experimental runs and the results are shown in Table 3 below. […] The pEC50 value is the negative log of the EC50 value, wherein the EC50 value is the half maximal effective concentration measured in molar (M). […]

[4] = tested on: endogenous target monocytes in human PBMC; assay: PBMC ex vivo monocyte depletion flow cytometry assay (Example 200); details: with anti-cotinine antibody SEQ ID NO: 11/12, 18-24 hours
Procedure: A human PBMC (peripheral blood mononuclear cells) monocyte depletion flow cytometry assay was developed to screen compounds in a 384-well plate format. This assay incorporated endogenous natural killer cells to deplete endogenous target monocytes.
To screen compounds in the human PBMC monocyte depletion flow cytometry assay, 11-point dose-response curves were made from 1 mM stocks in neat DMSO by serially diluting an ARM compound of Formula (I) four-fold into a 384-well plate row-wise. These serially diluted compounds were then stamped into a flat bottom polypropylene 384-well plate (Greiner Bio-One) at 100 nL/well. […]
After 18-24 hours incubation, 2 μL of 6.25 μg human FC block (BD Pharmingen) that was diluted in assay medium was added to the wells of the plate. […] Samples from the plate were run on BD FACS Canto II flow cytometer and data was analyzed using FlowJo software.
ARMs compounds of Formula (I) of the invention were tested for the ability to deplete monocytes in the above assay in one or more experimental runs and the results are shown in Table 3 below. […] The pEC50 value is the negative log of the EC50 value, wherein the EC50 value is the half maximal effective concentration measured in molar (M). For compounds tested in more than one experimental run, the pEC50 value is reported as an average or as the individual values measured

## CN1C(=O)C[C@H](C(=O)NCCOCCNC(=O)[C@H]2C[C@H](NC(=O)CCOCCC(=O)N[C@@H]3C[C@H](NC(C)(C)C)CC[C@@H]3N3CC[C@H](Nc4ncnc5ccc(C(F)(F)F)cc45)C3=O)C2)[C@H]1c1cccnc1
[1]
  pKd of Antibody for ARM Compound of Formula (I): 8.975
[2]
  Exposure of Compound of Formula (I) 48 hours post-dose: 73.01 ng/mL
[3]
  ADCC Reporter Assay pEC50: 9.3
[4]
  Ex Vivo Depletion Assay pEC50: 9.5
